Inhibition data for 99 compounds are collected here from PubChem BioAssay AID602261 (Sanford-Burnham Center for Chemical Genomics, 2012).

Chains of the proteins cited; added tags and fusions are not shown.
UniProt P49327, whole entry: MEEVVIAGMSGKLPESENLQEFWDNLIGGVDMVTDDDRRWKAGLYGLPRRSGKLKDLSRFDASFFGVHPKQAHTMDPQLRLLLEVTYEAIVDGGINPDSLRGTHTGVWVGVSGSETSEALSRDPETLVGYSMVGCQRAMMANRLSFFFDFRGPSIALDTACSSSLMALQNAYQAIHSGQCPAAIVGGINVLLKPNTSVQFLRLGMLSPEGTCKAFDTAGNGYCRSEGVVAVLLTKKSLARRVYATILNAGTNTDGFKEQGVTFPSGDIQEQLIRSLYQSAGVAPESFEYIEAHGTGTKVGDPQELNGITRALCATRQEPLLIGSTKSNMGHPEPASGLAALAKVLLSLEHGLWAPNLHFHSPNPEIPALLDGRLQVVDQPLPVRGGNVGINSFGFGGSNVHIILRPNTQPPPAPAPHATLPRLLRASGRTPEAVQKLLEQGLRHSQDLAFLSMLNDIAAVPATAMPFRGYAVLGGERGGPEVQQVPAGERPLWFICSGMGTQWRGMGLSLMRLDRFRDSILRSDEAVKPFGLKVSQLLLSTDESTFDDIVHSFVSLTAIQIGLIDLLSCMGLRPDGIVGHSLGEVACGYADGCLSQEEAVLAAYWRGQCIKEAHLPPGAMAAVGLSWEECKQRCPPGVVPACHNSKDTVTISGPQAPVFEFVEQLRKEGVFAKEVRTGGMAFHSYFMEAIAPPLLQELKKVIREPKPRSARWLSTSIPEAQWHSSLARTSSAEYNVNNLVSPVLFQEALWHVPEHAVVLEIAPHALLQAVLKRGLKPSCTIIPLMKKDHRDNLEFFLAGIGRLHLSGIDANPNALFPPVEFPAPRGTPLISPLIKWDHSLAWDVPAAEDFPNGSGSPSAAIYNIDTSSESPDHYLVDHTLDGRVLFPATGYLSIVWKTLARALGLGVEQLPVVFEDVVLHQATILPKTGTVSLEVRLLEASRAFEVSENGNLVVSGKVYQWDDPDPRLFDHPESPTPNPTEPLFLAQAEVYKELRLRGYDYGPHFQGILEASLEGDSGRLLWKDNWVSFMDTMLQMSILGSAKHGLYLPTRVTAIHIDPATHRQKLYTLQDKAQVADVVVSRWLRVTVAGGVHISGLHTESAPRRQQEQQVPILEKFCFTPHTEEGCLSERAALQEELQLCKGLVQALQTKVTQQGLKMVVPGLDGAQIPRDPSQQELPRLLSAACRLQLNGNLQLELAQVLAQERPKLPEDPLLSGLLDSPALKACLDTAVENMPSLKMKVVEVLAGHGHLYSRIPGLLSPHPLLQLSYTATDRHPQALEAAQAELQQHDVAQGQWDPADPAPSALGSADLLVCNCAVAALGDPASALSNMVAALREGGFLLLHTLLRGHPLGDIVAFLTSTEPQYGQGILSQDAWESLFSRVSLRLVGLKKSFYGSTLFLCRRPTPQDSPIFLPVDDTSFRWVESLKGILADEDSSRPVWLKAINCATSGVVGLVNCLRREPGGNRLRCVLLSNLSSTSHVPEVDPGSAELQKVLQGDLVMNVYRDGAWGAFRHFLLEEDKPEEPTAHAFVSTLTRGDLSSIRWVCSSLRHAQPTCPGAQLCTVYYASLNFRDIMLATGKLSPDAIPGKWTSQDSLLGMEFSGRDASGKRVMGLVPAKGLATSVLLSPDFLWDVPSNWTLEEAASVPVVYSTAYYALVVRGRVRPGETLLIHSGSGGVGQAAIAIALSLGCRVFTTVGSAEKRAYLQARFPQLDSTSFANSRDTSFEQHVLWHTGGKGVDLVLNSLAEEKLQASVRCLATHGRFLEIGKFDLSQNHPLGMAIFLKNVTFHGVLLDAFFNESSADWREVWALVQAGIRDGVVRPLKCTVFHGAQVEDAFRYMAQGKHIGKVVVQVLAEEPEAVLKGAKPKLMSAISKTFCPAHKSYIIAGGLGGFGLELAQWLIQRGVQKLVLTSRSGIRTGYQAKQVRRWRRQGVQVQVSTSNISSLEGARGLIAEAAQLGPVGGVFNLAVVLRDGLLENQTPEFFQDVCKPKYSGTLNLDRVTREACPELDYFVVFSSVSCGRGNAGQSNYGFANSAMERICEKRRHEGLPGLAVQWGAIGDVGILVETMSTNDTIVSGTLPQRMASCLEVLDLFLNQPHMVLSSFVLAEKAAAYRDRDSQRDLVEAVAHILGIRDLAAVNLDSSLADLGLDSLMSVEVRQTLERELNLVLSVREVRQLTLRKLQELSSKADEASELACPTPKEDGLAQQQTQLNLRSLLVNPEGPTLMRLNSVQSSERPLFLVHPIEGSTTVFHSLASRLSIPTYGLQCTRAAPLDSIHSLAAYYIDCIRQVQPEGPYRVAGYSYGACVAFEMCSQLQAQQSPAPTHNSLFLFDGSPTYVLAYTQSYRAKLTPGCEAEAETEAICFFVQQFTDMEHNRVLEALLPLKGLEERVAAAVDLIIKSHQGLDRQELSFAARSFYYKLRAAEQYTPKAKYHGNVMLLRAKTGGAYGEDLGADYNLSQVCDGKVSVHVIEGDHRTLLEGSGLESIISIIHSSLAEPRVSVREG

The list shows a part of the results, in another mix than the full data. Some salts or complexes appear as unconnected parts, following the source record. Active and inactive are the calls of the source.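 How the source made its calls: active means compounds whose normalised, plate-corrected inhibition of enzyme fluorescence in the single-dose primary screen is 50% or more; inactive means the rest.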

The target in this experiment is Fatty acid synthase (Homo sapiens) (UniProt P49327). Description: FAS thioesterase domain inhibitors, primary screen, biochemical, fluorescence intensity, uHTS (AID 602261).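 Further: 0% = DMSO with enzyme and 100% = substrate without enzyme.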 Conditions: recombinant FAS-TE, OMFH fluorogenic substrate, fluorescence endpoint; at 15 µM; stronger effect = higher value.
With `COc1ccccc1-c1ccccn1.O=[N+]([O-])c1cc([N+](=O)[O-])c(O)c([N+](=O)[O-])c1`, the inhibition was inactive: 0%. Next, `CCN(CC)CCCOC(=O)C(O)(c1ccccc1)c1ccccc1`: inactive: -5.5%; `COc1ccccc1OP(C)(=O)Nc1ccc(C)cc1` (centres undefined): inactive: -6.6%; `Cc1ccc(NP(C)(=O)Oc2ccccc2)c(C)c1` (centres undefined): inactive: -9.8%. Next, `CCOC(=O)c1ccc(NP(C)(=O)Oc2ccccc2)cc1` (centres undefined): inactive: -7.1%. `Cc1cc(C)cc(OP(C)(N)=O)c1` (centres undefined): the inhibition is inactive: -2.5%. For `COc1ccccc1OP(C)(=O)Nc1cc(Cl)ccc1C` (centres undefined), the inhibition is inactive: -2.7%. In the case of `COc1ccc(OP(C)(=O)Nc2cccc(F)c2)cc1` (centres undefined), the inhibition is inactive: -6.3%.

Consider `O=[N+]([O-])c1cc([N+](=O)[O-])c(Nc2cccnc2)c([N+](=O)[O-])c1`, for which the inhibition was inactive: -4.2%. The result for `O=[N+]([O-])c1ccc2c(c1)C=Nc1ccccc1O2` reads inactive: 9.3%. For `CC(C)(C)c1ccc(OP(C)(=O)Nc2ccc(SC(F)(F)F)cc2)cc1` (centres undefined), the inhibition is inactive: 18.7%. The result for `Cc1cccc(C)c1OP(C)(N)=O` (centres undefined) reads inactive: -3.8%. Consider `CP(=S)(Nn1cnnc1)Oc1ccccc1` (centres undefined), for which the inhibition was inactive: -6.2%. The result for `CP(=O)(Nc1ccccc1Br)Oc1ccccc1` (centres undefined) reads inactive: -5.1%; that for `COc1ccccc1OP(C)(=O)Nc1ccccc1` (centres undefined), inactive: -10.7%; that for `O=[N+]([O-])c1cc([N+](=O)[O-])c(O)c([N+](=O)[O-])c1.c1ccc(Oc2ccncc2)cc1`, inactive: -0.2%. The result for `CCOC(=O)c1ccc(NP(C)(=O)Oc2ccc(OC)cc2)cc1` (centres undefined) reads inactive: -12%. As to `CCOP(C)(=S)SCC(=O)NC(C)C(=O)O` (centres undefined), the inhibition was inactive: -4.5%. Take `CP(=O)(Nc1ccccn1)Oc1ccc(Cl)cc1` (centres undefined): the inhibition is inactive: -5.5%. The result for `CP(=O)(Nc1ccc(SC(F)(F)F)cc1)Oc1ccc(Cl)cc1` (centres undefined) reads active: 58.1%.

For the compound `Cc1cccc(C)c1OP(C)(=O)Nc1ccc(SC(F)(F)F)cc1` (centres undefined), the inhibition is inactive: 5.3%.

In the case of `Cc1ccc(Nc2c([N+](=O)[O-])cc([N+](=O)[O-])cc2[N+](=O)[O-])cc1`, the inhibition was inactive: 8%. Next, `CP(=O)(Oc1ccccc1)OC(c1ccccc1)C(F)(F)F` (centres undefined): inactive: 1.7%; `CP(=O)(NC(=O)Nc1ccccc1)Oc1ccccc1` (centres undefined): inactive: -9.7%; `CCc1ccc(OP(C)(=O)N2CCN(c3ccc([N+](=O)[O-])cc3)CC2)cc1` (centres undefined): inactive: 41.4%. Consider `Cc1cc(C)cc(OP(C)(=O)Nc2ccc(SC(F)(F)F)cc2)c1` (centres undefined), for which the inhibition was inactive: 23.4%. In the case of `O=[N+]([O-])c1cc([N+](=O)[O-])c(-c2cnn(-c3ccccc3)c2)c([N+](=O)[O-])c1`, the inhibition is inactive: -19.5%. Next, `Cc1nc2ccc3ccccc3c2s1.O=[N+]([O-])c1cc([N+](=O)[O-])c(O)c([N+](=O)[O-])c1`: inactive: 3.8%; `O=[N+]([O-])c1cc([N+](=O)[O-])c(-n2nnc3ccccc32)c([N+](=O)[O-])c1`: inactive: -9.7%; `CN(Cc1cccnc1)C(=O)COc1ccc(Cl)c(Cl)c1.O=[N+]([O-])c1cc([N+](=O)[O-])c(O)c([N+](=O)[O-])c1`: inactive: 2.3%. The result for `CN1CCCCC1COC(=O)C1(O)c2ccccc2CCc2ccccc21` (centres undefined) reads inactive: -4.3%; that for `COc1ccccc1OP(C)(=O)Nc1c(C)cccc1C` (centres undefined), inactive: -4.8%; that for `COc1ccc(-c2ccccn2)cc1.O=[N+]([O-])c1cc([N+](=O)[O-])c(O)c([N+](=O)[O-])c1`, inactive: 1.8%. The result for `CCCOc1ccc(NP(C)(=O)Oc2ccc(Cl)cc2)cc1` (centres undefined) reads inactive: 7.9%. For the compound `CP(=O)(Nc1ccc(SC(F)(F)F)cc1)Oc1ccccc1` (centres undefined), the inhibition is inactive: 3%. For the compound `CC1=C2N=C(C=C3N=C(C(C)=C4[N-][C@@](C)([C@@H]5N=C1[C@](C)(CCC(=O)NC[C@@H](C)OP(=O)([O-])O[C@H]1[C@@H](O)[C@@H](n6cnc7cc(C)c(C)cc76)O[C@@H]1CO)[C@H]5CC(N)=O)[C@@](C)(CC(N)=O)[C@@H]4CCC(N)=O)[C@@](C)(CC(N)=O)[C@@H]3CCC(N)=O)C(C)(C)[C@@H]2CCC(N)=O.[C-]#N.[Co+3]`, the inhibition was inactive: -0.6%. For the compound `O=[N+]([O-])c1cc([N+](=O)[O-])c(Nc2nnnn2CCO)c([N+](=O)[O-])c1`, the inhibition is inactive: -3.1%. Next, `CCOC(=O)C(CC)C1=NC(C)(C)Cc2ccccc21.O=[N+]([O-])c1cc([N+](=O)[O-])c(O)c([N+](=O)[O-])c1` (centres undefined): inactive: 0.5%; `CC1=NCCc2c1[nH]c1ccccc21.O=[N+]([O-])c1cc([N+](=O)[O-])c(O)c([N+](=O)[O-])c1`: inactive: -8.3%. Turning to `O=C(O)c1cccc(Nc2c([N+](=O)[O-])cc([N+](=O)[O-])cc2[N+](=O)[O-])c1`, the inhibition is inactive: 0.2%. As for `Cc1ccc(C)c(NP(C)(=O)Oc2ccccc2)c1` (centres undefined), the inhibition was inactive: -16.7%.

Turning to `Cc1cc(C)cc(OP(C)(=O)Nc2ccccn2)c1` (centres undefined), the inhibition is inactive: -7.1%. Next, `CP(=O)(Nc1cccc(Br)c1)Oc1ccccc1` (centres undefined): inactive: 1.7%; `COc1ccccc1OP(C)(=O)Nc1cccc(Br)c1` (centres undefined): inactive: -4.3%; `CCOC(=O)c1ccc(NP(C)(=O)Oc2cc(C)cc(C)c2)cc1` (centres undefined): inactive: -4%. As for `Cc1cc(C)cc(OP(C)(=O)Nc2ccc(C)cc2C)c1` (centres undefined), the inhibition is inactive: -3.9%. Next, `O=C(OC1CN2CCC1CC2)c1ccc([N+](=O)[O-])cc1` (centres undefined): inactive: -0.3%. The result for `O=C(OCCN1CCN(CCOCc2ccccc2)CC1)C(O)(c1ccccc1)c1ccccc1` reads inactive: -7.6%; that for `COc1ccc2c(c1O)-c1c(O)c(OC)cc3c1[C@H](C2)[N+](C)(C)CC3.O=[N+]([O-])c1cc([N+](=O)[O-])c([O-])c([N+](=O)[O-])c1[O-]`, inactive: -10.2%; that for `O=[N+]([O-])c1cc([N+](=O)[O-])c(Nc2ccc(Cl)cc2)c([N+](=O)[O-])c1`, inactive: 7.6%. On to `CP(=O)(Nc1ccccc1F)Oc1ccccc1` (centres undefined), for which the inhibition is inactive: -6.5%.

Consider `CC(C)c1ccc(OP(C)(=O)Nc2ccc(SC(F)(F)F)cc2)cc1` (centres undefined), for which the inhibition was inactive: 28.7%. Next, `Cc1c([N+](=O)[O-])cc([N+](=O)[O-])c(Br)c1[N+](=O)[O-]`: inactive: 0.6%; `CCN(CC)CCCOC(=O)C(O)(c1ccccc1)C1CCCCC1` (centres undefined): inactive: 0.1%; `CP(=O)(Nc1ccccc1)Oc1ccc(F)cc1` (centres undefined): inactive: -5.4%. As for `CCCCCOc1ccc(NP(C)(=O)Oc2ccc(Cl)cc2Cl)cc1` (centres undefined), the inhibition was inactive: 33.5%. Next, `O=[N+]([O-])c1cc([N+](=O)[O-])c(OC2CCCCC2O)c([N+](=O)[O-])c1` (centres undefined): inactive: -1.5%; `CCN(CC)CCCNc1ccccc1[N+](=O)[O-].O=[N+]([O-])c1cc([N+](=O)[O-])c(O)c([N+](=O)[O-])c1`: inactive: 0.6%; `CCOC(=O)c1ccc(NP(C)(=O)Oc2ccc(F)cc2)cc1` (centres undefined): inactive: -8.6%. For `COc1ccc(OP(C)(=O)Nc2ccc(SC(F)(F)F)cc2)cc1` (centres undefined), the inhibition is inactive: 14.9%. The result for `O=[N+]([O-])c1ccc(OP2(=O)COCCO2)cc1` (centres undefined) reads inactive: -2.2%; that for `O=[N+]([O-])c1cc([N+](=O)[O-])c(NCC2CCS(=O)(=O)C2)c([N+](=O)[O-])c1` (centres undefined), inactive: -1.2%; that for `Cc1cc(-c2cccc3ccccc23)c(C)cn1.O=[N+]([O-])c1cc([N+](=O)[O-])c(O)c([N+](=O)[O-])c1`, inactive: 10.6%. The result for `Cc1c(C(c2ccc3c(c2)OCO3)c2c(C)n(C)n(-c3ccccc3)c2=O)c(=O)n(-c2ccccc2)n1C.O=[N+]([O-])c1cc([N+](=O)[O-])c(O)c([N+](=O)[O-])c1` reads inactive: -6.7%; that for `COc1ccc(OP(C)(=O)Nc2cccc(Br)c2)cc1` (centres undefined), inactive: 2.9%. Turning to `CN(C)CCOC(=O)C(O)(c1ccccc1)C1CCCCC1` (centres undefined), the inhibition was inactive: -5.6%. For `COc1ccc(NP(C)(=O)Oc2ccccc2OC)cc1` (centres undefined), the inhibition is inactive: -2.3%.

As for `CP(=O)(Nc1ccc2c(c1)OCCO2)Oc1ccccc1` (centres undefined), the inhibition was inactive: -1.9%.

`Cc1ccccc1NP(C)(=O)Nc1ccccc1C`: the inhibition was inactive: -6.9%. The result for `O=[N+]([O-])c1cc([N+](=O)[O-])c(C(F)(F)F)c([N+](=O)[O-])c1O` reads inactive: 19.2%. Next, `CP(=O)(Nc1ccc(SC(F)(F)F)cc1)Oc1ccc(F)cc1` (centres undefined): inactive: 16.6%; `CCOP(C)(=S)SCC(=O)NC(C)(CC)C(=O)O` (centres undefined): inactive: -3.6%; `COc1ccccc1OP(C)(=O)Nc1ccccc1Br` (centres undefined): inactive: -2.7%. Next, `CC(C)(C)c1ccc(OP(C)(=O)O)cc1`: inactive: -6.3%; `CP(=O)(Nc1ccc(Cl)cc1)Oc1ccc(F)cc1` (centres undefined): inactive: 0.9%; `CN(C)C(=O)c1c([N+](=O)[O-])cc([N+](=O)[O-])cc1[N+](=O)[O-]`: inactive: -5.7%. Take `CCN(CC)CC(O)COC(=O)C(O)(c1ccccc1)C1CCCCC1` (centres undefined): the inhibition was inactive: -1.1%.

As for `COc1ccc(OP(C)(=O)Nc2ccc(Br)cc2)cc1` (centres undefined), the inhibition is inactive: -2.1%. The result for `COc1ccccc1OP(C)(=O)Nc1c(C)n(C)n(-c2ccccc2)c1=O` (centres undefined) reads inactive: -15%.

Take `O=C(OCCCN1CCCC1)C(O)(c1ccccc1)C1CCCCC1` (centres undefined): the inhibition is inactive: -5%. Regarding `CP(=O)(Oc1ccccc1)N1CCOC1=O` (centres undefined), the inhibition was inactive: -7.2%. The result for `CCc1ccc(OP(C)(=O)Nc2cccnc2)cc1` (centres undefined) reads inactive: -5.7%; that for `CCOC(=O)c1ccc(NP(C)(=O)Oc2ccc(Cl)cc2)cc1` (centres undefined), inactive: 3.1%; that for `CP(=O)(OC12CC3CC(CC(C3)C1)C2)OC12CC3CC(CC(C3)C1)C2`, inactive: 7%. Next, `CCCCCCCCCCCCCCCC1C[N+](C)(C)CCOP(C)(=O)O1` (centres undefined): inactive: -45.9%. As to `CP(=O)(Nc1ccc(Cl)cc1Cl)Oc1ccccc1` (centres undefined), the inhibition was inactive: 2.4%. The result for `CP(=O)(OCCOc1ccccc1)OCCOc1ccccc1` reads inactive: -6.8%. `O=C1C(O)=C([N+](=O)[O-])C(=O)C(O)=C1[N+](=O)[O-]`: the inhibition was inactive: -12.8%.

Consider `Cc1cc(C)cc(OP(C)(=O)Nc2cccc(C(F)(F)F)c2)c1` (centres undefined), for which the inhibition was inactive: 4.1%. The result for `COc1ccccc1OP(C)(=O)Nc1ccc(C)c(C)c1` (centres undefined) reads inactive: -6%; that for `COc1ccc(OP(C)(=O)Nc2ccccc2Br)cc1` (centres undefined), inactive: -7.7%. Next, `Cc1c(NP(C)(=O)Oc2ccc(C(C)C)cc2)c(=O)n(-c2ccccc2)n1C` (centres undefined): inactive: -6.1%. For `O=[N+]([O-])c1cc([N+](=O)[O-])c(Nc2ccccn2)c([N+](=O)[O-])c1`, the inhibition is inactive: -4.9%.

Take `CP(=O)(Nc1ccccn1)Oc1ccccc1` (centres undefined): the inhibition was inactive: -16.1%.

For the compound `COc1ccccc1OP(C)(=O)Nc1ccc(C)cc1C` (centres undefined), the inhibition is inactive: -7.4%. Take `CCc1ccc(OP(C)(=O)O)cc1`: the inhibition is inactive: -9.9%.

In the case of `COc1ccccc1OP(C)(=O)Nc1ccc(Br)cc1` (centres undefined), the inhibition is inactive: -3%.

Regarding `COc1ccc(OP(C)(=O)Nc2ccccn2)cc1` (centres undefined), the inhibition was inactive: -4.5%.

With `CN(C)CCOC(=O)C(O)(c1ccccc1)C1CCCC1` (centres undefined), the inhibition is inactive: -6.2%.

Usually inhibition stands for the change of the read-out against control, counted positive when it falls.
